# According to patent publication US20200332020A1 (REGENTS OF THE UNIVERSITY OF MINNESOTA, published 2020):
# B1: Tw1S4_AM6 IgG (antibody, V domains shown)
# VH: EVQLLESGGGLVQPGGSLRLSCAASGFTFSSYAMSWVRQAPGKGLEWVSAIREDGIKTYYADSVKGRFTISRDNSKNTLYLQMNSLRAEDTAVYYCAKRARRFDYWGQGTLVTVSS
# VL: DIQMTQSPSSLSASVGDRVTITCRASQSISSYLNWYQQKPGKAPKLLIYNASLLQSGVPSRFSGSGSGTDFTLTISSLQPEDFATYYCQQTRNHRTHFGQGTKVEIKR
# Key:
# [1] = target: HSPG2 (perlecan) on cells (human, UniProt P98160 22-4391); test: flow cytometry titration on MDA-MB-231-LM2 cells
# Protocol: Non-linear regression analysis was performed using the geometric MFIs from antibody binding titrations, using GraphPad Prism software. […] This procedure was used for all cell lines tested for Tw1S4_6 or Tw1S4_AM6 binding.
# The parent TwiS4_6 antibody and the optimized Tw1S4_AM6 antibody have identical heavy chains, and therefore CDR 1, 2 and 3 on the heavy chains are identical. The light chains of the parent TwiS4_6 antibody and the optimized Tw1S4_AM6 antibody differ only in CDR 3. Light chain CDR 3 of TwiS4_6 is […] (SEQ ID NO: 16), whereas Light chain CDR 3 of Tw1S4_AM6 is […] (SEQ ID NO: 7).
# [2] = target: T1, Recombinant HSPG2 domain 1 (first 247 amino acids of human HSPG2, C-terminal His tag) (human, UniProt P98160 22-247); test: biolayer interferometry (BLItz), His-tagged HSPG2D1 on Ni-NTA biosensor
# T1 construct: range 1-247; The stated range counts from residue 1, so it includes the signal peptide; also called HSPG2D1; perlecan domain 1; not shown: C-terminal His tag from the pcDNA 3.3+ vector
# Protocol: (§1) We used biolayer inferometry (BLItz, Fortebio) to determine antibody binding kinetics specifically with purified HSPG2 domain 1. Ni-NTA biosensors were hydrated for 10 minutes in phosphate buffered saline. Following hydration, a 30 second baseline was established, followed by a 10-minute loading of the biosensor with 10 μg/mL HSPG2 domain 1 protein. The biosensor was then placed in PBS to establish baseline for 30 seconds. A two-step antibody association—dissociation cycle of 5 minutes each was then used to determine the kinetic association (kₐ) and dissociation (kd) rate constants. The equilibrium dissociation constant (KD) was calculated as KD=kd/kₐ
# (§2) An important caveat with flow cytometry-based titration curves is the potential for avidity affects contributing to the binding, resulting in an ‘apparent KD’. Biophysical techniques are most often employed to generate the true, analytically relevant ‘intrinsic KD^{’} value. We chose biolayer interferometry as a means of assessing the kinetics of antibody-antigen binding with HSPG2D1.
# [3] = target: T1, Recombinant HSPG2 domain 1 (first 247 …); test: biolayer interferometry (BLItz), HSPG2 domain 1 on Ni-NTA biosensor
# Protocol: as §1, §2
binder,measurement,setting,value
B1,fold improvement in binding affinity compared to the parent antibody Tw1S4_6,[1],> 10 fold
same,Kd,[2],80 nM
same,Kd,[3],79.3 nM
same,koff,[3],0.00225 s⁻¹
same,kon,[3],28400 M⁻¹ s⁻¹
